Amino acid sequences for entries named in this document (tags omitted).
UniProt P21554, whole entry: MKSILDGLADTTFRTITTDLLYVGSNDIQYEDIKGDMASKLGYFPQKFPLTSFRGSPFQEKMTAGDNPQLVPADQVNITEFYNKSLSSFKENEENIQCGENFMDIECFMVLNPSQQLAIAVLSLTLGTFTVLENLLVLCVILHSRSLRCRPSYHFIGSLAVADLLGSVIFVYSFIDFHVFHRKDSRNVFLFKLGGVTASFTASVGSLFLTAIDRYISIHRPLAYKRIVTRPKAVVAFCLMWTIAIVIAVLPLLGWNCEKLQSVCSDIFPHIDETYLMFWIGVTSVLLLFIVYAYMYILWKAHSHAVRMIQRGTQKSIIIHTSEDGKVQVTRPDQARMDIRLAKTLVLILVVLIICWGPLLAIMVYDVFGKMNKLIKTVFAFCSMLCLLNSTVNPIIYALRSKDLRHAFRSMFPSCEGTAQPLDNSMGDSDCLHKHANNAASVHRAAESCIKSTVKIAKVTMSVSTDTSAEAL
UniProt P34972, whole entry: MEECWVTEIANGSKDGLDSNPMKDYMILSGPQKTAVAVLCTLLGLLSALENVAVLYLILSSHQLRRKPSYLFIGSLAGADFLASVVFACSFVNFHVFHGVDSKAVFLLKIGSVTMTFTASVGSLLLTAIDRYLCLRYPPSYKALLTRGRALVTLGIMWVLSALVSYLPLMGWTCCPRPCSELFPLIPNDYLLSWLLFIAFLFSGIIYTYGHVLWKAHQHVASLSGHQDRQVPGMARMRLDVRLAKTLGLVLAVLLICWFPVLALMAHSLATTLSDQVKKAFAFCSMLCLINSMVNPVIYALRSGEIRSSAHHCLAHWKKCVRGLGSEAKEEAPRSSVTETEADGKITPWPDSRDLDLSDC

According to patent US20210284621A1 (priority 2018, published 2021):

What was measured:
CB1 receptor [1] = biological target: T1, CB1 receptor (Homo sapiens, UniProt P21554); assay: CB1 competitive radioligand binding assay ([3H] SR141716A); parameters: expressed in transfected cells; host or cells: Chem-1 cells
Method: (§1) The binding affinity (% inhibition, Ki) of compounds of the invention for the CB1 and CB2 receptors was determined by a competitive radioligand binding assay, the results of which are provided in Table 2 and Table 3. Exemplary methods for the determination of binding affinity for a cannabinoid receptor by competitive radioligand binding can be found in the literature, for example, in Reggio P. H., et al. The bioactive conformation of aminoalkylindoles at the cannabinoid CB1 and CB2 receptors: insights gained from (E)- and (Z)-naphthylidene indenes. J Med Chem. 41(26): 5177-5187 (1998); and Munro S., et al. Molecular characterization of a peripheral receptor for cannabinoids. Nature 365:61-65 (1993).
CB1 Radioligand Binding Assay: A compound of the invention (0.5 μM in 1% DMSO) was incubated with Chem-1 cells expressing human recombinant CB1 receptor in buffer (50 mM HEPES, pH 7.4, 5 mM MgCl2, 1 mM CaCl2, 0.2% BSA) for 90 minutes at 37° C. in the presence of 2.0 nM [H^3] SR141716A (CB1 radioligand). % Inhibition was determined as a function of radioligand binding to the CB1 receptor.

CB1 receptor [2] = biological target: T1, CB1 receptor; assay: cell-based; parameters: host or cells: PathHunter cell lines
Method: (§2) Compounds of the invention were assayed in the PathHunter® β-Arrestin assay to determine agonist activity on the CB1 and CB2 receptors, the results of which are provided in Table 6.
(§3) The PathHunter® β-Arrestin assay monitors the activation of a GPCR in a homogenous, non-imaging assay format using a technology developed by DiscoverX called Enzyme Fragment Complementation (EFC) with β-galactosidase (3-Gal) as the functional reporter. […] EA is fused to β-Arrestin and PK is fused to the GPCR of interest.
(§4) PathHunter cell lines were expanded from freezer stocks according to standard procedures. Cells were seeded in a total volume of 20 μL into white walled, 384-well microplates and incubated at 37° C. for the appropriate time prior to testing. For agonist activity determination, cells were incubated with sample to induce response. Intermediate dilution of sample stocks was performed to generate 5× sample in assay buffer. […] Microplates were read following signal generation with a PerkinElmer Envision™ instrument for chemiluminescent signal detection. Compound activity was analyzed using CBIS data analysis suite (ChemInnovation, CA). For agonist assays, percentage activity was calculated using the following formula: % Activity=100%×(mean RLU of test sample− mean RLU of vehicle control)/(mean MAX control ligand− mean RLU of vehicle control).

CB2 receptor [3] = biological target: T2, CB2 receptor (Homo sapiens, UniProt P34972); assay: CB2 competitive radioligand binding assay ([3H] WIN-55,212-2); parameters: expressed in transfected cells; host or cells: CHO-K1 cells
Method: as §1
CB2 Radioligand Binding Assay: A compound of the invention (0.05 μM in 1% DMSO) was incubated with CHO-K1 cells expressing human recombinant CB2 receptor in buffer (20 mM HEPES, pH 7.0, 0.5% BSA) for 90 minutes at 37° C. in the presence of 2.4 nM [H^3] WIN-55,212-2 (CB2 radioligand). % Inhibition was determined as a function of radioligand binding to the […].

CB2 receptor [4] = biological target: T2, CB2 receptor; assay: cell-based; parameters: host or cells: cAMP Hunter cell lines
Method: as §2, §3, §4

Which results are given for `CCCCCCC(C)(C)c1ccc2c(c1)OC(C)(C)[C@@H]1CC=C(C(=O)O)C[C@@H]21` [Compound 21, (6aR,10aR)-6,6-dimethyl-3-(2-methyloctan-2-yl)-6a,7,10,10a-tetrahydro-6H-benzo[c]chromene-9-carboxylic acid]?
Ki (CB1 receptor [1]): > 5 µM; EC50 (CB1 receptor [2]): 2670 nM; Ki (CB2 receptor [3]): > 3 µM; EC50 (CB2 receptor [4]): > 1000 nM
